Tests used:
[1] = in vivo
breast MCF-7 cells = test system: breast MCF-7 cells
Procedure: (§1) The evaluation of the cytotoxic activities of the compounds (1) was carried out "in vitro" measuring, according to known methods, the inhibition of the colony formation, the cell viability (Trypan blu) and the incorporation of tritiated thymidine in tumoral and normal cells.

breast MDA cells = test system: breast MDA cells
Procedure: as §1

lung (A549) cells = test system: lung (A549) cells
Procedure: as §1

[2] = test system: melanoma (SKMEL-26) cells
Procedure: as §1

microcytoma (GCLI) cells = test system: microcytoma (GCLI) cells
Procedure: as §1

[3] = test system: non tumoral stabilized EBV+ cell line B95-8; conditions: EBV+ B95-8 (marmoset)
Procedure: as §1

[4] = test system: non tumoral stabilized EBV+ cell lines from patients affected by acute or chronic mononucleosis; conditions: EBV+ lines from patients with acute or chronic mononucleosis
Procedure: as §1

ovary (SW626) cells = test system: ovary (SW626) cells
Procedure: as §1

[5] = after a cumulative dose of 1200 mg/kg, 8th day after the end of the treatment

With “aquo-cis-diamino-chloro-(4-amino)benzoate-platinum(II) [Compound 1B]” the LD50 [1] was “higher than 240 mg/kg”.
With “cis-diamino-chloro-(4-amino)benzoate-platinum(II) hydrochloride [Compound 1A]” the cytotoxic activity (breast MCF-7 cells) was “significant cytotoxic activity”, the cytotoxic activity (breast MDA cells) was “significant cytotoxic activity” and the cytotoxic activity (lung (A549) cells) was “significant cytotoxic activity”. For the same substance, the cytotoxic activity [2] was “significant cytotoxic activity”, the cytotoxic activity (microcytoma (GCLI) cells) was “significant cytotoxic activity” and the cytotoxic activity [3] was “significant cytotoxic activity”. For the same substance, the cytotoxic activity [4] was “significant cytotoxic activity”, the cytotoxic activity (ovary (SW626) cells) was “significant cytotoxic activity” and the water solubility was 7 mg/mL. For the same substance, the LD50 [1] was “higher than 1200 mg/kg” and the BUN value [5] was 36±8 mg/100 ml.
In the case of “cis-diamino-chloro-(4-amino)benzoate-platinum(II) mono methanol solvate [Compound 1C]”, the water solubility is reported as over 3 mg/mL and the LD50 [1] is reported as “higher than 240 mg/kg”.

Reference: patent US5405869A, “Anti-tumor platinum complexes” (Istituto Nazionale per la Ricerca sul Cancro, priority 1991, dated 1995)
